Measured values from PMC10119890 (British journal of pharmacology, 2021).

By UniProt entry, the sequences of proteins in these tests, tags left out.
UniProt O95800, whole entry: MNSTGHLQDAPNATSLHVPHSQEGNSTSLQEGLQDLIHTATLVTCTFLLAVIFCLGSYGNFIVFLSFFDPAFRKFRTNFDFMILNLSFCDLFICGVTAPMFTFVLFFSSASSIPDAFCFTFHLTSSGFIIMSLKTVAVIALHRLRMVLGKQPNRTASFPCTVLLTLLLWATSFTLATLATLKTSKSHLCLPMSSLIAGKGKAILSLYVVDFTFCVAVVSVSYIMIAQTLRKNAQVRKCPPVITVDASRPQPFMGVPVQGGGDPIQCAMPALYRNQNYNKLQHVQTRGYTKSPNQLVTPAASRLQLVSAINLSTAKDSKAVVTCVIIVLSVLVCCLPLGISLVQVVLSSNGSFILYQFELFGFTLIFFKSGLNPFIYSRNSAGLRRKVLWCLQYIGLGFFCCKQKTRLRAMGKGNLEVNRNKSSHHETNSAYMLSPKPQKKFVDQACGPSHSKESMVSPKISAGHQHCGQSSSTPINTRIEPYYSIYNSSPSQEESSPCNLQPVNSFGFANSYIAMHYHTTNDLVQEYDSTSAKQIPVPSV

Target: GPR75 (Homo sapiens, UniProt O95800)
Assay: SPR on immobilized recombinant GPR75
Type: binding

How did the Kd turn out when `O=C(O)CCC/C=C\C/C=C\C/C=C\C/C=C\CCCCCO` [20-HETE, 20-hydroxy-5,8,11,14-eicosatetraenoic acid] was run?
Its Kd is 0.156 nM.
